Reference: patent EP2794556B1, “BIS-(ARYL/HETEROARYL)-METHYLENE COMPOUNDS, PHARMACEUTICAL COMPOSITIONS CONTAINING SAME AND THEIR USE FOR TREATING CANCER” (Gleason, James L., priority 2011, dated 2013)

Legend:
Type in all cases: cell-based, human
[1] = test system: total intracellular HDAC activity in SCC25 cells; assay: HDACi activity with fluorogenic substrate in live cells; conditions: increasing concentration, Fig. 2a, b
Protocol: (§1) Compounds were also tested along with 1,25D for HDACi activity using a fluorogenic substrate in vivo in SCC25 and SCC4 cells (Figs. 2a, b). This assay measures the inhibition of total intracellular HDAC activity and determines the capacity of compounds to inhibit HDACs in the form of their naturally occurring complexes.

[2] = test system: total intracellular HDAC activity in SCC4 cells; assay: as above; conditions: increasing concentration, Fig. 2a, b
Protocol: as §1

SCC4 cells = assay: MTS cell proliferation assay; conditions: vitamin D resistant SCC4 cells, Figures 7c, 8 and 9
From the text: Dose-dependent effects of compounds on cell cycle progression was monitored using a CellTiter 96 Aqueous Non-Radioactive Cell Proliferation Assay Kit (Promega). The assay composed of solutions of a novel tetrazolium compound (MTS) and an electron coupling reagent (phenazine methosulfate; PMS). MTS is reduced by metabolically active cells into a soluble formazan product that absorbs at 490nm. The quantity of formazan product absorbing at 490nm is directly proportional to the number of living cells.
This antiproliferative effect again results from the combination of VDR agonism and HDACi activity of the molecules, as molecules lacking strong VDR agonism or HDACi activity (e.g. 1,25D) are ineffective.

## C=C1/C(=C\C=C2/CCC[C@]3(C)[C@@H]([C@H](C)CCCC(C)(C)O)CC[C@@H]23)C[C@@H](O)C[C@@H]1O [1,25D, 1,25-dihydroxyvitamin D, reference compound]
[1]
  HDACi activity, substrate deacetylation: no effect
[2]
  HDACi activity, substrate deacetylation: no effect
SCC4 cells
  antiproliferative potency: ineffective
